We go through one substance from patent US20260124184A1, “ONCE DAILY ALDOSTERONE SYNTHASE INHIBITOR (R)-(+)-5-(P-CYANOPHENYL)-5,6,7,8-TETRAHYDROIMIDAZO[L,5-A]PYRIDINE” (priority 2022, published 2026).

Series [1] relates to patients with primary aldosteronism. The conditions noted are these: all doses combined, n=35. Here is the method: (§1) A double-blind, randomized, Phase 2 trial was conducted between November 2019 and June 2022 at 11 centres in Italy, Switzerland and the Netherlands (NCT04007406). […] Patients requiring fixed-dose antihypertensive therapy continued treatment throughout the study; steroid therapies, β-adrenergic and renin-angiotensin-aldosterone system blockers were not permitted. At 14-day intervals, office blood pressures were recorded and blood samples were taken for measurement of steroid and peptide hormones and electrolytes at a central laboratory.
Plasma aldosterone and plasma renin concentration were measured centrally under GCP regulations using the Liaison® chemiluminescent immunoassay kit supplied by DiaSorin S.p.A. Italy. The system used specific monoclonal antibodies to prevent cross reactions with other major potential reactants in the serum samples. The monoclonal antibodies directed against specific epitopes of the renin molecule allowed accurate and sensitive quantification. The assays were performed according to the instructions provided by the manufacturer. […] The analytical sensitivity was <0.97 ng/ml. […] The analytical sensitivity was <0.53 IU/mL.
(§2) For all efficacy endpoints, changes from baseline were calculated from linear models and accompanied by 95% confidence intervals and p values. Log-transformed values were used for changes in ARR. The full analysis set (FAS) and safety set were defined as all randomized patients who received at least one dose of study drug.

Series [2] has the same test system. Here is the method:
as §1, §2

Values joined by “and” are separate entries in the source; they are usually repeats but may differ in a detail not shown here. Equal entries are not always repeated. Where two headings read alike, the source gives them in different places.

On to “(R)-(+)-5-(p-cyanophenyl)-5,6,7,8-tetrahydroimidazolium[1,5-a]pyridine dihydrogen phosphate [dexfadrostat phosphate]”, for which, in series [1] (Day 1 (baseline)), the “aldosterone to renin ratio (ARR), mean” value is on record as 17.58 (ng/dL)/(mU/L); the “aldosterone to renin ratio (ARR), median” value is 15.3 (ng/dL)/(mU/L) and 15.27 (ng/dL)/(mU/L). In series [1] (Day 56), the “aldosterone to renin ratio (ARR), mean” value is on record as 2.18 (ng/dL)/(mU/L); the “aldosterone to renin ratio (ARR), median” value is 0.6 (ng/dL)/(mU/L) and 0.63 (ng/dL)/(mU/L). Besides, in series [2] (N=35), the “Serious TEAE, number of patients” value worked out at 0; the “TRAE and possibly TRAE: Vertigo, number of events” value stood at 1; the “TRAE, % of patients” value is “(20.0) %”. In addition, in series [2] (N=35, 70-day study period), the “Any TEAE, % of patients” value is listed as “(45.7) %”. In addition, the “AESI considered treatment-related or possibly treatment-related, number” value in series [2] (headaches) is on record as “two”.
